The series in a line: Solubility of the compound at 100 uM in sodium phosphate buffer with 10% DMSO and 500 uM NADH at pH 7. The following applies: pH 7, 100 µM.

For the compound `O=[N+]([O-])c1ccc2c(c1)CN(c1ccc([N+](=O)[O-])cc1[N+](=O)[O-])CC2`, the solubility result was “Insoluble”.

These data come from ChEMBL document CHEMBL1926667, “The synthesis of 2-nitroaryl-1,2,3,4-tetrahydroisoquinolines, nitro-substituted 5,6-dihydrobenzimidazo[2,1-a]isoquinoline N-oxides and related heterocycles as potential bioreducible substrates for the enzymes NAD(P)H: quinone oxidoreductase 1 and E. coli nitroreductase” (Bioorg Med Chem Lett, 2011).
